Results published in ChEMBL document CHEMBL1126883 (1993).

The chains behind the UniProt entries cited, without tags or fusion partners.
UniProt P61169, whole entry: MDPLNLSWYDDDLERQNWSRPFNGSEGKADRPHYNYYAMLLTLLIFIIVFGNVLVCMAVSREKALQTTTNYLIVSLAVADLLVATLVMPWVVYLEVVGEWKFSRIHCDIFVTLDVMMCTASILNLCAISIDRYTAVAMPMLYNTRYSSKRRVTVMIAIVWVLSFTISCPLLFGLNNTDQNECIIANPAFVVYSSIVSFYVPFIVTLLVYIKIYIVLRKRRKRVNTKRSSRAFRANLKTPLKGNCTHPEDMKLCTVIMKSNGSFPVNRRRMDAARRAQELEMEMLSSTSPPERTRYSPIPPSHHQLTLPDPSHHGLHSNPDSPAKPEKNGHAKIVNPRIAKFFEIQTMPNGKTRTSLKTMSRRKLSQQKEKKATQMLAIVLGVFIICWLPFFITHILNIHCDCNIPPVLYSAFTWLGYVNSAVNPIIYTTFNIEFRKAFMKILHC

Biological target: D(2) dopamine receptor (Rattus norvegicus, UniProt P61169)

pIC50: 5.89
SMILES: CCN1CCC[C@H]1CN1Cc2ccc(Cl)cc2C1=O

pIC50: −log10 of the molar value.
